Laboratory results reported in publication PMC3843672, “Resistance to Degradation and Cellular Distribution are Important Features for the Antitumor Activity of Gomesin” (PLoS ONE, 2013).

Legend:
[1] = tested on: B16 F10 mouse melanoma cell line; assay type: cell-based; details: B16 cells, RPMI with 10% FBS, 24 h treatment, MTT reduction, relative to control viability (100%)
Procedure: B16 F10 mouse melanoma cell line was cultured in RPMI medium supplemented with 10% fetal bovine serum (FBS; Gibco, USA), 10 U/ml penicillin and 10 µg/ml streptomycin. Cells were cultured in a humidified incubator containing 2.5% CO2 at 37°C.
B16 cells were incubated in 96-well microtiter plates in RPMI medium supplemented with 10% FBS until reach the semi-confluence and then treated with different concentrations of Gm and its analogues for 24 h. To investigate the mechanisms of Gm-induced cell death, B-16 cells were also pre-incubated with 40 µM cytochalasin D (Tocris, USA); 20 µM necrostatin-1 (Tocris, USA), 10 µM Z-VAD (Tocris, USA), 5 mM MβCD (Tocris, USA), and 100 µM chloroquine (Tocris, USA) for 1 h. Cell viability was determined using the standard reduction of the tetrazolium salt 3-(4,5-dimethylthiazol-2-yl)-2,5-diphenyltetrazolium bromide (MTT). The results were expressed relative to control cell viability (100%).

B16 cells [2] = test: Peptide internalized into cells, biotinylated peptides, flow cytometry; assay type: cell-based, mouse
Procedure: Cells were treated with the 2 µM biotinylated peptide. Then, the melanoma cells (5×10^5 for flow cytometry or 5×10^3 cell seeded for confocal microscopy) were labeled with streptavidin-Alexa 488 (Invitrogen, USA) for 30 min at 4°C and washed with PBS. The cells were fixed with a solution of 2% paraformaldehyde for 30 min, washed with 0.1 M glycin, and permeabilized with 0.01% saponin. Then, the cells were labeled with streptavidin-Alexa 647 (Invitrogen, USA). For flow cytometry, the cells were extracted using PBS with 5 mM EDTA previously to fixation. The quantification of label of external biotynilated peptide, and intracellular peptide were performed by flow cytometry or confocal microscopy. For flow cytometry the cells were excited using argon laser (488 nm), and diode laser (633 nm). The emission was collected in FL-1 and FL-4 channel. […] The pinhole device was adjusted to capture fluorescence of one airy unit. […]
We quantified the Gm and analogues binding to the cellular membrane, and their internalization using their biotinylated counterpart. […] External peptides labeled with streptavidin Alexa Fluor 488 were identified for the quantification of the green fluorescence (FL1 channel), and internal peptides labeled with streptavidin Alexa Fluor 647 were identified for the quantification of the deep red fluorescence (FL4 channel), after permeabilization of cellular membrane, by Flow cytometry. […]

[3] = Resistance to degradation by lysosomal enzymes (LC/ESI-MS); assay type: in vitro ADME; details: 37°C
Procedure: The cultured cells were resuspended using pH 5 Tris buffer, and then sonicated. Protein concentration was measured using the RC DC protein assay kit (Bio-Rad, CA, USA) according to the manufacturer’s instructions. The peptides were incubated with this protein solution for 1–14 h, and its stability was evaluated by reversed-phase liquid chromatography coupled with an electrospray ionization mass spectrometer (LC/ESI-MS).
Figure 2 Lysosomal enzymes participate in the cytotoxic reduction activities of the Gm analogues. (A, C and D) Cell viability was assessed by the MTT reduction test. (A) Cells were incubated with cytoskeletal inhibitor (cytochalasin D), and lysosomal inhibitor (chloroquine) for 1 h before to stimulation by Gm, and its analogues for 24 h. Chloroquine potentiated the cytotoxicity of peptides. (B) Since chloroquine was able to potentiate the cytotoxicity of the peptides, resistance to degradation of lysosomal enzymes was evaluated by LC/ESI-MS. Peptides were incubated at 37°C for different times. (C) Cells were incubated with the IC50 concentration for each peptide. Cytotoxic activities after 24 and 72 h of the peptide incubation were compared.

B16 cells [4] = test: Cell death by the annexin-V and 7-AAD assay; assay type: cell-based, mouse; details: 24 h, peptide at IC50, flow cytometry
Procedure: B16 cells (5×10^5 cells/ml) were treated with Gm and subsequently harvested, washed with PBS and resuspended in binding buffer (0.01 M HEPES, pH 7.4, 0.14 M NaCl and 2.5 mM CaCl2). The suspensions were labeled with annexin-V-APC (An) and 5 µg/ml 7-Amino-actinomycin D (7-AAD) (BD Biosciences, USA) according to the manufacturer’s instructions. After incubation at room temperature for 20 min, cells were analyzed in a FACSCalibur flow cytometer (Becton Dickinson, USA) using CellQuest, and FlowJo 7.6 software. A total of 10,000 events were collected per sample.

## CC(C)C[C@@H]1NC(=O)[C@H](CCCNC(=N)N)NC(=O)[C@H](CCCNC(=N)N)NC(=O)[C@@H](NC(=O)[C@@H]2CCC(=O)N2)CSSC[C@@H](C(=O)N[C@@H](CCCNC(=N)N)C(=O)NCC(=O)N[C@@H](CCCNC(=N)N)C(N)=O)NC(=O)[C@H](Cc2ccc(O)cc2)NC(=O)[C@H]([C@@H](C)O)NC(=O)[C@H](C(C)C)NC(=O)[C@@H]2CSSC[C@H](NC1=O)C(=O)N[C@@H](Cc1ccc(O)cc1)C(=O)N[C@@H](CCCCN)C(=O)N[C@@H](CCC(N)=O)C(=O)N[C@@H](CCCNC(=N)N)C(=O)N2 [Gm, Gomesin]
[1]
  IC50: ~7 µM
[1]; listed as Gomesin
  IC50: 7 µM
B16 cells [2]; 2 µM biotinylated peptides
  internal presence of peptide after 24 h: internal presence
B16 cells [2]; biotinylated peptides used, 2 µM, B16 cells, streptavidin-Alexa 647 (FL4) after fixation and saponin permeabilization, maximum over time course, mean ± SEM, three independent experiments
  Max. Internal Fluorescence: 603±79 AU
[3]; sonicated cells, pH 5 Tris buffer, different times, LC/ESI-MS (Figure 2B)
  resistance to lysosomal enzyme degradation (in words): great stability to lysosomal enzymes
[3]; sonicated cultured cells in pH 5 Tris buffer (lysosomal enzymes), incubation 1–14 h, starting peptide concentration 10^−4 M taken as 100%, LC/ESI-MS, mean ± SEM
  Peptide Degradation: 0±0%
B16 cells [4]
  type of cell death (annexin-V / 7-AAD label): An^+7-AAD^+

Like-named read-outs stand apart in the source and are kept apart here.
